# Antibody variant affinities, Ab-14 heavy chain, assay B

Target peptide (SARS-CoV-2 spike, HR2 region): PDVDLGDISGINAS

Ab-14 is the parent antibody, in scFv form: VH, then three GGGGS repeats, then VL. The light chain is unchanged in all variants.
VH: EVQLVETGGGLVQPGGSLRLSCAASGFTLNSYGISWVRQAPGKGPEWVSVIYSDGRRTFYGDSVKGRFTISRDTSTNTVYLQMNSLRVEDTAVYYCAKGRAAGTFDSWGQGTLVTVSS
VL: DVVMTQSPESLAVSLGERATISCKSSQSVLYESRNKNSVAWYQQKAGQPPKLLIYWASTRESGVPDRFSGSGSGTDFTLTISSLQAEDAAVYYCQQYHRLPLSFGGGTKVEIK

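These sequences belong to a second round, designed from the earlier measurements on random variants of the parent. Their group label is 14H_En_Gen (En: ensemble of fine-tuned language models; Gen: genetic algorithm). The assay is AlphaSeq: two haploid yeast populations carry antibody and antigen on their surface. The frequency of each diploid, read from paired DNA barcodes, reflects how well the two displayed proteins bind. Read counts were normalised to the haploid input and turned into Kd by a linear fit to BCL2-family pairs of known affinity, for each replicate. There are six technical replicates.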

The parent's heavy chain CDRs are GFTLNSYGIS, VIYSDGRRTFYGDSVK, GRAAGTFDS; each variant's own CDRs replace them letter for letter.
Numbers give log10(Kd / nM), so 0 is 1 nM and 3 is 1 µM. Smaller is tighter.
An entry "ND" has no value in the source: the pair was not observed among the diploids in that replicate. This suggests poor binding but is not conclusive.
Nonspecific signal, from three strains lacking the peptide, appeared in 1% of pairings of all heavy chain designs, centred on 2.08 (5% of these signals below 0.84); values are not corrected for it. For each scFv, signals with the empty controls are counted beside the result, with their mean in brackets.
The authors averaged sequences with at least three values out of six and counted those with two or fewer as poor binders.
A sequence measured in both rounds can read differently, since the two assays cover different ranges.

| CDR-H1 | CDR-H2 | CDR-H3 | log10 Kd, replicates | signal with controls |
|---|---|---|---|---|
| GFDLNEYGIS | VIYADGKRQYYADSVK | GNVAGTFDV | ND ND ND ND ND ND | 0 of 18 |
| GFDLNEYGIS | VIYADGKRTAYADSVK | GSNAGTFDV | -0.61 -0.54 -0.95 -0.87 -1.18 -0.49 | 0 of 18 |
| GFDLNEYGIS | VIYADGVRTAYADSVK | GNNGGTFDV | 0.93 1.00 1.30 0.89 0.75 1.36 | 1 of 18 (1.32) |
| GFDLNEYGIS | VIYADGMRTFYADDVK | GTNAGTFDV | -0.82 -1.00 -0.94 -0.86 -0.99 -0.94 | 0 of 18 |
| GFDLNEYGIS | VIYADGSRQAYADSVK | GNVAGTFDV | -0.31 -0.24 -0.84 -0.49 -0.52 -0.26 | 0 of 18 |
| GFDLNEYGIS | VIYADGQRTAYADDVK | GTNAGTFDV | -0.04 -0.58 -0.38 -0.52 -0.72 0.39 | 2 of 18 (0.99) |
| GFDLNEYGIS | VIYADGLRTAYTDSVK | GNVAGTFDV | -0.08 -0.53 -0.16 -0.72 -0.83 0.04 | 0 of 18 |
| GFDLNEYGIS | VIYADGTRTAYSDSVK | GNVAGTFDV | -0.18 -0.21 -0.63 -0.04 -0.79 -0.40 | 0 of 18 |
| GFDLNEYGIS | VIYADGQRTFYADSVK | GEVAGTFDV | -1.09 -1.31 -0.81 -1.18 -0.65 -0.68 | 0 of 18 |
| GFDLNEYGIS | VIYADGMRTFYADSVK | GANAGTFDI | 0.35 -0.03 0.03 -0.11 0.26 0.26 | 0 of 18 |
| GFDLNEYGIS | VIYADGQRTAYSDDVK | GENAGTFDV | -0.03 -0.43 -0.07 -0.11 0.11 -0.03 | 0 of 18 |
| GFDLEEYGIS | VIYADGRRTAYADSVK | GNVAGTFDI | -0.36 -0.56 -0.62 -0.73 -0.33 -0.42 | 0 of 18 |
| GFDLDEYGIS | VIYADGRRTAYADSVK | GNEAGTFDI | ND ND ND ND ND ND | 0 of 18 |
| GFDLNEYGIS | VIYADGMRTFYSDSVK | GEVAGTFDV | -0.47 -0.74 -0.78 -0.86 -0.97 -0.42 | 0 of 18 |
| GFDLNEYGIS | VIYADGMRTAYADDVK | GNNAGTFDT | 1.60 1.04 1.57 1.05 0.81 1.29 | 0 of 18 |
| GFDLNEYGIS | VIYADGVRTAYADKVK | GQVAGTFDV | -0.39 -0.32 -0.58 -0.45 -0.63 -0.47 | 0 of 18 |
| GFDLNEYGIS | VIYADGSRTAYSDSVK | GENAGTFDI | 0.35 0.07 -0.61 1.52 0.80 0.30 | 0 of 18 |
| GFDLNEYGIS | VIYADGKRTAYSDSVK | GQVAGTFDV | -0.75 -1.11 -0.84 -0.48 -0.46 -0.51 | 0 of 18 |
| GFDLNEYGIS | VIYADGRRTAYADSVK | GGNAGTFDV | ND ND ND ND 1.06 1.55 | 0 of 18 |
| GFDLNEYGIS | VIYADGMRTFYTDSVK | GNVAGTFDL | 0.05 -0.38 -0.29 -0.91 -0.21 -0.24 | 0 of 18 |
| GFDLDEYGIS | VIYADGSRTAYADSVK | GNVAGTFDI | -0.25 -0.14 -0.21 -0.18 -0.46 -0.21 | 0 of 18 |
| GFDLDEYGIS | VIYADGMRTYYADSVK | GEVAGTFDL | -0.11 -0.42 -0.32 -0.17 -0.30 -0.06 | 0 of 18 |
| GFDLDEYGIS | VIYADGMRTAYADSVK | GGNAGTFDT | 0.04 -0.37 -0.21 -0.07 -0.40 -0.19 | 0 of 18 |
| GFDLNEYGIS | VIYADGKRTAYVDSVK | GEVAGTFDV | -0.12 -0.55 -1.03 -0.77 -0.60 -0.31 | 0 of 18 |
| GFDLNEYGIS | VIYADGVRTAYVDDVK | GNVAGTFDI | -0.41 -0.46 -0.39 -0.58 -0.54 -0.26 | 0 of 18 |
| GFDLDEYGIS | VIYADGMRTFYADSVK | GEVAGTFDT | 0.26 0.20 0.01 0.09 -0.05 -0.03 | 0 of 18 |
| GFDLDEYGIS | VIYADGMRTAYADDVK | GNQAGTFDV | 0.41 -0.86 -0.47 -1.03 -0.76 -0.16 | 0 of 18 |
| GFDLNEYGIS | VIYADGMRTAYSDSVK | GNTAGTFDI | 0.03 -0.41 -0.09 0.43 -0.20 0.26 | 1 of 18 (0.90) |
| GFDLNEYGIS | VIYADGMRTAYVDSVK | GNQAGTFDI | -0.15 -0.67 -0.70 -0.80 -0.71 -0.35 | 0 of 18 |
| GFDLNEYGIS | VIYADGVRTAYVDSVK | GNNAGTFDI | 0.08 -0.29 0.10 -0.12 -0.29 0.09 | 0 of 18 |
| GFDLDEYGIS | VIYADGMRTAYSDSVK | GGNAGTFDM | -0.43 -0.36 -0.65 -0.50 -0.77 -0.52 | 1 of 18 (2.87) |
| GFDLDEYGIS | VIYADGMRTAYADSVK | GEVAGTFDV | -0.28 -0.47 -0.62 -0.42 -0.69 -0.25 | 0 of 18 |
| GFDLNEYGIS | VIYADGMRTAYSDSVK | GEVAGTFDT | -0.26 -0.17 -0.44 -0.20 0.09 -0.09 | 0 of 18 |
| GFDLNEYGIS | VIYADGMRTAYQDSVK | GNNAGTFDI | -0.05 -0.25 -0.36 -0.17 -0.08 0.12 | 0 of 18 |
| GFDLNEYGIS | VIYADGRRTAYADNVK | GEVAGTFDM | -0.31 -0.58 -0.46 -0.86 -0.80 -0.55 | 1 of 18 (1.78) |
| GFDLNEYGIS | VIYADGMRTAYADSVK | GTNAGTFDL | -0.16 -0.13 -0.23 -0.28 -0.26 -0.01 | 0 of 18 |
| GFDLNEYGIS | VIYADGMRTAYTDSVK | GNNAGTFDI | -0.02 0.02 -0.40 -0.58 -0.42 0.01 | 1 of 18 (1.32) |

Picked from the list: the 3 lowest averages where every replicate gave a value.

| CDR-H1 | CDR-H2 | CDR-H3 | log10 Kd, replicates | signal with controls |
|---|---|---|---|---|
| GFDLNEYGIS | VIYADGQRTFYADSVK | GEVAGTFDV | -1.09 -1.31 -0.81 -1.18 -0.65 -0.68 | 0 of 18 |
| GFDLNEYGIS | VIYADGMRTFYADDVK | GTNAGTFDV | -0.82 -1.00 -0.94 -0.86 -0.99 -0.94 | 0 of 18 |
| GFDLNEYGIS | VIYADGKRTAYADSVK | GSNAGTFDV | -0.61 -0.54 -0.95 -0.87 -1.18 -0.49 | 0 of 18 |

Values reported by Li et al. 2023, doi:10.1038/s41467-023-39022-2 (FLAb copy).